Measured values: article PMC3561363, “A Novel Retro-Inverso Peptide Inhibitor Reduces Amyloid Deposition, Oxidation and Inflammation and Stimulates Neurogenesis in the APPswe/PS1ΔE9 Mouse Model of Alzheimer’s Disease” (PLoS ONE, 2013)

Tested on: APP/PS1 transgenic mice
Test: Blood brain barrier penetration and brain localisation after i.p. injection
Assay type: in vivo, mouse
Conditions: 100 nmol/kg i.p., 1 h, 17-month old APP/PS1 mice, brain sections
From the text: APPswe/PS1ΔE9 mice with a C57Bl/6 background (APP/PS1 mice) were obtained from the Jackson lab (http://research.jax.org/repository/alzheimers.html). To determine if Flu-RI-OR2-TAT crosses the blood brain barrier (experiment 1), 2 male 17-months-old APP/PS1 animals and 2 16-months-old C57BL/6 animals were used. To look at the effects of RI-OR2-TAT on mouse brain pathology (experiment 2), 8 female 10-months-old APP/PS1 mice were used. The animals were housed in single cages in a temperature controlled holding room (21.5°C±1) with 12∶12 h light and dark cycle. Food and water was available ad libitum.
For experiment 1, all 4 animals were injected i.p. with 100 nmol/kg of Flu-RI-OR2-TAT in 0.9% NaCl at 0 h. The animals were then housed in a dark room. After 1 h, the animals were anaesthetised with isoflurane and sodium barbiturate (Dolethal, Bayer, Germany), transcardially perfused and the brains were retrieved and fixed in 4% ice cold paraformaldehyde. […]
All sections were visualized using an Axio Scope 1 fluorescence microscope (Zeiss, Germany). For quantification, two images per section were taken from the cortex area with a 10X objective for 8-oxo guanine and β-amyloid staining, and a 100X objective for Iba1 staining, with a minimum of 5 sections visualized per animal. […]

fluorescein-rGffvlkGrrrrqrrkkrGy-NH2 [Flu-RI-OR2-TAT]
blood brain barrier penetration: can cross the BBB
